{"source": "PubChem BioAssay (EPA / NIEHS)", "note": "The list shows a part of the results, in another mix than the full data. Activity calls are given as the source filed them. How the source made its calls: active means hit-call score of the fitted dose curve at least 0.9, where 1 is the maximum; inactive means score below 0.9.", "data": [{"assay": "ATG_RORE_CIS: Attagene CIS-FACTORIAL HepG2 Assay for human RAR-related Orphan Receptor Element (RORE) (AID 2282959)", "conditions": "HepG2 Attagene cis-factorial RORE reporter, mRNA; actives raise or lower the signal", "method": "ATG_CIS is a cell-based, multiplexed-readout assay that uses HepG2, a human liver cell line, with measurements taken at 24 hours after chemical dosing in a 24-well plate.ATG_RORE_CIS is one of 52 assay component(s) measured or calculated from the ATG_CIS assay. It is designed to make measurements of mRNA induction, a form of inducible reporter, as detected with fluorescence intensity signals by Reverse transcription polymerase chain reaction (RT-PCR) and Capillary electrophoresis technology.Data from the assay component ATG_RORE_CIS was analyzed into 1 assay endpoint. This assay endpoint, ATG_RORE_CIS, was analyzed with bidirectional fitting relative to DMSO as the negative control and baseline of activity. Using a type of inducible reporter, measures of mRNA for gain or loss-of-signal activity can be used to understand the reporter gene at the transcription factor-level as they relate to the gene RORA and RORB and RORC. Furthermore, this assay endpoint can be referred to as a primary readout, because this assay has produced multiple assay endpoints where this one serves a reporter gene function. To generalize the intended target to other relatable targets, this assay endpoint is annotated to the nuclear receptor intended target family, where the subfamily is orphan.\nHuman liver HepG2 cells are transiently transfected with multiple reporter transcription units (MRTUs) in 6-well plates using FuGene 6 reagent (Roche; 3 ml FuGene/1 mg DNA). The MRTU constructs are regulated by a cis-regulating element (promoter). […] A major difference between the CIS and TRANS system is that in CIS activities of endogenous TFs are measured, whereas the TRANS assay evaluates changes in activities of exogenous, chimeric NR-Gal4 proteins. […] At the end of 24 hour incubation, total RNA was isolated using TriZol reagent (Invitrogen). The isolated RNA is then reverse-transcribed using oligo(dT) primer and Mo-MLV reverse transcriptase (Invitrogen) with DNAse I (Ambion) treatment for 30 min. The one-tenth of the produced cDNA was amplified by PCR using Taq DNA polymerase (Invitrogen) and two reporter sequence-specific primers. The PCR products were fluorescently labeled by primer extension with 6-arboxyfluorescein (6-FAM) 5'-labeled reporter sequence-specific primer (2 min at 95 C, 20 s at 68 C and 10 min at 72 C) and these products were digested with 5U of HpaI (New England Biolabs) for 2h at 37 C. The fragments were purified using Qiaquick PCR columns (Qiagen), analyzed on an ABI 3130xL genetic analyzer (Applied Biosystems) with peak positions identified by using a set of X-rhodamine (ROX)-labeled MapMarker1000 molecular weight standards (BioVentures). The raw capillary electrophoresis data was processed using Attagraph software (Attagene).", "values": [{"smiles": "Cc1cccc([N+](=O)[O-])c1[N+](=O)[O-]", "outcome": "inactive"}, {"smiles": "CC(C)OP(C)(=O)OC(C)C", "outcome": "inactive"}, {"smiles": "Cc1ccc([N+](=O)[O-])cc1[N+](=O)[O-]", "outcome": "inactive"}, {"smiles": "N#CBr", "outcome": "inactive"}, {"smiles": "CC(C)N(CCO)C(C)C", "outcome": "inactive"}, {"smiles": "Cc1ccc([N+](=O)[O-])c([N+](=O)[O-])c1", "outcome": "inactive"}, {"smiles": "COP(C)(=O)OC", "outcome": "inactive"}, {"smiles": "Cc1c([N+](=O)[O-])cccc1[N+](=O)[O-]", "outcome": "inactive"}, {"smiles": "O=[N+]([O-])c1cccc([N+](=O)[O-])c1", "outcome": "inactive"}, {"smiles": "CN(C)CCCl", "outcome": "inactive"}, {"smiles": "O=[N+]([O-])OCC(CO[N+](=O)[O-])(CO[N+](=O)[O-])CO[N+](=O)[O-]", "outcome": "inactive"}, {"smiles": "COc1ccc([N+](=O)[O-])cc1[N+](=O)[O-]", "outcome": "inactive"}]}]}
